Target: Recombinant human DPP1 enzyme (Homo sapiens (Human), UniProt P53634)
Conditions: DPP1 inhibitory activity, substrate Gly-Arg-AMC

By UniProt entry, the sequences of proteins in these tests, tags left out. Residues count along the entry.
UniProt P53634, 395-463: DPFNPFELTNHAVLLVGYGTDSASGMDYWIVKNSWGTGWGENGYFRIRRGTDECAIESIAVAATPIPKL
UniProt P53634, 25-134: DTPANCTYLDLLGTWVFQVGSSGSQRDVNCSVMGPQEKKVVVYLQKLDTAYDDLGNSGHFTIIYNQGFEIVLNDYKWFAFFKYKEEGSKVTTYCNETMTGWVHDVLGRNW
UniProt P53634, 231-394: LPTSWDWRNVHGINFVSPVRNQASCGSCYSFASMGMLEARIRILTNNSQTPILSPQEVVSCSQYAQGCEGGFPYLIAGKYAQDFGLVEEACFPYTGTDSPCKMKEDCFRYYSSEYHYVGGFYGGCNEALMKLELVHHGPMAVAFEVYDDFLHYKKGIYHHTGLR

Cn1c(=O)oc2ccc(-c3ccc(C[C@@H](C#N)NC(=O)[C@@H]4CNCCCO4)c(F)c3)cc21 [Compound I, (S)—N—((S)-1-cyano-2-(2-fluoro-4-(3-methyl-2-oxo-2,3-dihydrobenzo[d]oxazol-5-yl)phenyl)ethyl)-1,4-oxazepane-2-carboxamide]
IC50: 1.6 nM

From patent US20250163036A1, “DIPEPTIDYL PEPTIDASE 1 INHIBITOR POLYMORPH, PREPARATION METHOD AND USE THEREFOR” (HAISCO PHARMACEUTICALS PTE. LTD., priority 2022, published 2025)
